Assays:
[1] = molecular target: T1, rat MOR (Rattus norvegicus (Rat), UniProt P33535); test: [35S]GTPγS binding assay, mu receptor; conditions: for Mu % stim (efficacy): single concentration (10 μM) versus the standard DAMGO; for Mu antagonist potency Ke / Kb: against standard agonist DAMGO; for Kb: read-out: Mu antagonist potency Ke
Method: (§1) Cell Culture: C6 glioma cells stably expressing the rat MOR (C6μ) or DOR (C6δ) were grown in Dulbecco's modified eagle medium (DMEM) supplemented with 10% fetal bovine serum (FBS), 90 units/ml penicillin, 90 μg/ml streptomycin, and 0.5 mg/ml geneticin. Chinese hamster ovary cells stably expressing the human KOR (CHOκ) or human NOP receptor CHO-NOP were maintained similarly, except that DMEM-F12 medium was used. All cells were grown under 5% CO2 at 37° C.
(§2) Preparation of Cell Membranes: Cells were washed three times with PBS and detached from plates using harvesting buffer (20 mM HEPES, pH 7.4, 150 mM NaCl, and 0.68 mM EDTA). After centrifugation at 200×g for 3 min, the cell pellet was resuspended in 50 mM Tris-HCl, pH 7.4 and homogenized with a Tissue Tearor (Biospec Products, Inc). The homogenate was pelleted at 20,000×g for 20 min at 4° C. and the pellet resuspended in 50 mM Tris-HCl, pH 7.4 and re-homogenized. The final pellet was resuspended in 50 mM Tris-HCl, pH 7.4 and frozen in aliquots at −80° C. Protein concentration was determined using the BCA protein assay.
(§3) [^35S]GTPγS Binding Assays: As described previously (Traynor and Nahorski, 1995), membranes (20 μg) from cells expressing MOR, DOR, KOR or NOP receptors are incubated in 20 mM Tris-HCl, pH 7.4, 5 mM MgCl2, 100 mM NaCl, 2.2 mM dithiothreltol (prepared freshly), 30 μM GDP, 0.1 nM [^35S]GTPγS, with or without 10 μM of test compound or 10 μM standard (DAMGO, SNC80, U50488H or N/OFQ as appropriate) or H2O for 60 min at 25° C. Samples are filtered through GF/C glass-fiber filtermats mounted on a Brandel cell harvester and rinsed four times with ice-cold 50 mM Tris-HCl, pH 7.4 containing 5 mM MgCl2, and 100 mM NaCl. Filtermats are processed as described for ligand binding above.
(§4) In a measure of functional activity, selected compounds have been evaluated in the [^35S]GTPγS assay in the same cell lines used for the binding assays (Table 2). Assays were performed as previously described by Traynor and Nahorski.^21 Agonist efficacy at MOR, KOR and NOP receptors was determined at a single concentration (10 μM) in comparison to the standard selective agonists DAMGO (MOR), and U69593 (KOR) and nociceptin (NOP) and antagonist Ke values determined against these standard agonists. For example, both 22, R=Ph (Ke(MOR) 0.47 nM, Ke(KOR) 0.41 nM) and 7a, R=Ph (Ke(MOR) 0.47 nM, Ke(KOR) 0.27 nM) are antagonists at MOR and KOR and have partial agonist activity at NOP receptors (40% and 14% of nociceptin's efficacy). 30, R=Ph also has no efficacy at MOR and KOR and is a partial agonist (57% of nociceptin) at NOP receptors.

Protein sequences, listed by entry. Tags and fused reporters are not part of them.
UniProt P33535, whole entry: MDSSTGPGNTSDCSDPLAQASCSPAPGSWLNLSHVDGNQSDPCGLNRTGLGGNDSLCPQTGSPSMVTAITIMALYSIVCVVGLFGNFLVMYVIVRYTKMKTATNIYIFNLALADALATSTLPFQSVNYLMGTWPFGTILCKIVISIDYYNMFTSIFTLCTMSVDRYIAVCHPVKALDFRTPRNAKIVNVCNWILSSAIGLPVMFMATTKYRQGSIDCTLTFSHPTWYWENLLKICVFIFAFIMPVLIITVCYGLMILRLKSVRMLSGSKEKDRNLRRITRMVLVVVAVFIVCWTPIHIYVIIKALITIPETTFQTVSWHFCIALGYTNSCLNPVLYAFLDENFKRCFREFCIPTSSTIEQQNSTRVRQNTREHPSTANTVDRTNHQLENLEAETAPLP
UniProt P41145, whole entry: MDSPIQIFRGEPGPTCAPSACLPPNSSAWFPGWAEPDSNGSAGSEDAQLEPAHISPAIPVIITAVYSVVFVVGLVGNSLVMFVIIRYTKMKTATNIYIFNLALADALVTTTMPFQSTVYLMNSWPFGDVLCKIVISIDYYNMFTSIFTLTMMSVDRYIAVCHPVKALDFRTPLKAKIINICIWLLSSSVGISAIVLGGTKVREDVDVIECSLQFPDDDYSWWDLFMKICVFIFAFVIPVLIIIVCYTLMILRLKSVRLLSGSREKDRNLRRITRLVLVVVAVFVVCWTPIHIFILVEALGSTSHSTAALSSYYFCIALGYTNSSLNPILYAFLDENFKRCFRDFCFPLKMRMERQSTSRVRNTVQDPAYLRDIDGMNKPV
UniProt P41146, whole entry: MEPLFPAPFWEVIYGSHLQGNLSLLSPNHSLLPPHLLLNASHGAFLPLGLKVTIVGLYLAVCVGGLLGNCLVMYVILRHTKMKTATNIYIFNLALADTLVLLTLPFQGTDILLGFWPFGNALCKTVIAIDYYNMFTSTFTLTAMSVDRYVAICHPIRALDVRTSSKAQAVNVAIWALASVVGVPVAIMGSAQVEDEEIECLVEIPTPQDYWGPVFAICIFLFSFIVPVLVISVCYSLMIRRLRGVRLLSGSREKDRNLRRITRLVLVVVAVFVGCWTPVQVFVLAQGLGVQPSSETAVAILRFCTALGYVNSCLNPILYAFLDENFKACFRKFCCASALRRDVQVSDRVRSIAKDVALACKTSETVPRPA
UniProt P33533, whole entry: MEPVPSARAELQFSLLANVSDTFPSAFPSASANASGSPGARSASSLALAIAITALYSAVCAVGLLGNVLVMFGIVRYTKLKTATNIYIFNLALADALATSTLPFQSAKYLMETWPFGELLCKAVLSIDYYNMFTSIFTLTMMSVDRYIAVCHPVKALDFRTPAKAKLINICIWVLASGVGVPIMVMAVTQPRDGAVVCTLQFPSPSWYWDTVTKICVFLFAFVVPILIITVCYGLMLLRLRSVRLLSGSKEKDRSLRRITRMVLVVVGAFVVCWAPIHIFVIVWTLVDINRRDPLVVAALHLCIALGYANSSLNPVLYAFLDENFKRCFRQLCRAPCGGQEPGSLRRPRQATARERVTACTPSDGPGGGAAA

[2] = molecular target: human KOR (Homo sapiens (Human), UniProt P41145); test: [35S]GTPγS binding assay, kappa receptor; conditions: for Kappa % stim (efficacy): single concentration (10 μM) versus the standard U69,593
Method: as §1, §2, §3, §4

[3] = molecular target: human NOP receptor (Homo sapiens (Human), UniProt P41146); test: [35S]GTPγS binding assay, NOP receptor; conditions: single concentration (10 μM) versus the standard nociceptin
Method: as §1, §2, §3, §4

[4] = Anti-writhing assay (abdominal stretch assay); conditions: in vivo
Method: (§5) Furthermore, it has been confirmed that 7a, R=Ph, 22, R=Ph and 30, R=Ph display no opioid agonist actions in vivo, in assays where even a low efficacy opioid agonist would be expected to be active. Thus they display no agonist activity in the anti-writhing assay (abdominal stretch assay) or in the 50° C. tail withdrawal assay.

[5] = Warm water tail withdrawal assay; conditions: in vivo, 50° C.
Method: Mouse Warm Water Tall Withdrawal Assay. For all of the tail-withdrawal data a minimum of five mice is used in each group. Each mouse (is placed in a cylindrical restraint (Harvard Apparatus, South Natick, Mass., USA) with the tail fully exposed. Approximately one-third of the tail is immersed in water at 48° C. and latency to tail-withdrawal is measured (Janssen et al, 1963). The low temperature is to ensure that compounds with at delta or kappa agonism can be identified. Standards, test compounds or vehicle (usually sterile water) are be administered i.p. and tail-withdrawal latencies measured 25 min later. For antagonist studies compounds are administered 30 min before the first agonist dose. Baseline latencies vehicle injected mice) are typically 2-4 s. A cut-off latency of 20 s is used to prevent injury to the tail.
as §5

[6] = molecular target: rat DOR (Rattus norvegicus (Rat), UniProt P33533); test: Ligand binding assay, [3H]diprenorphine, delta (DOP) receptor; conditions: read-out: Binding affinities (Ki) Delta, membranes of C6 glioma cells expressing rat receptor
Method: as §1
(§6) Preparation of Cell Membranes: Cells were washed three times with PBS and detached from plates using harvesting buffer (20 mM HEPES, pH 7.4, 150 mM NaCl, and 0.68 mM EDTA). […] Protein concentration was determined using the BCA protein assay.
(§7) Ligand Binding Assays: As Alt et al., 2002. […] Nonspecific binding is measured using 10 μM naloxone (MOR, DOR, KOR) or N/OFQ (NOP). […] Each filtermat in a heat-sealed bag, is counted in a Wallac 1450 MicroBeta Liquid Scintillation and Luminescence Counter. IC50 values for test compounds are determined from concentration effect curves and converted to Ki values using GraphPad Prism.
(§8) Binding affinities at MOPr, KOPr, DOPr and NOPr were measured using [^3H]diprenorphine (MOP, KOP, DOP) and [^3H]N/OFQ (NOP) binding to membranes derived from CHO cells transfected with human receptors (KOP and NOP receptors) and C6 glioma cells stably expressing rat receptors (MOP and DOP). […]

[7] = molecular target: T1, rat MOR; test: Ligand binding assay, [3H]diprenorphine, mu (MOP) receptor; conditions: read-out: Binding affinities (Ki) Mu, membranes of C6 glioma cells expressing rat receptor
Method: as §1, §6, §7, §8

Structure (SMILES) | Mu % stim (efficacy) [1] | Kappa % stim (efficacy) [2] | NOP % stim (efficacy) [3] | Opioid agonist activity in the anti-writhing assay [4] | Opioid agonist activity in the tail withdrawal assay [5] | further results
CO[C@]12CC[C@@]3(C[C@@H]1[C@@](C)(O)c1ccncc1)[C@H]1Cc4ccc(O)c5c4[C@@]3(CCN1CC1CC1)[C@H]2O5 | 1% | −17% | 4% |  |  | 
CO[C@]12C=C[C@@]3(C[C@]1(C)[C@H](O)c1ccccc1)[C@H]1Cc4ccc(O)c5c4[C@@]3(CCN1CC1CC1)[C@H]2O5 | 4% |  |  | no agonist activity | no agonist activity | Mu antagonist potency Ke [1]: 0.47 nM; Kb [1]: 0.47 nM; NOP % stim (efficacy) ([3]; listed as 22, R = Ph): 39%; NOP % stim (efficacy) ([3]; listed as 22, R=Ph): 40%
CO[C@]12C=C[C@@]3(C[C@]1(C)[C@H](O)c1ccc(F)cc1)[C@H]1Cc4ccc(O)c5c4[C@@]3(CCN1CC1CC1)[C@H]2O5 |  |  |  |  |  | Ki [6]: 0.47 nM
CO[C@]12CC[C@@]3(C[C@]1(C)[C@H](O)c1ccccc1)[C@H]1Cc4ccc(O)c5c4[C@@]3(CCN1CC1CC1)[C@H]2O5 | 2% | 0% | 57% | no agonist activity | no agonist activity | Efficacy at MOR (in words) ([1]; [35S]GTPγS, 10 μM versus DAMGO): no efficacy; Efficacy at KOR (in words) ([2]; [35S]GTPγS, 10 μM versus U69593): no efficacy
CO[C@]12CC[C@@]3(C[C@@H]1[C@H](O)c1ccccc1)[C@H]1Cc4ccc(O)c5c4[C@@]3(CCN1CC1CC1)[C@H]2O5 |  |  |  |  |  | Ki [7]: 1.25 nM
CO[C@]12C=C[C@@]3(C[C@@H]1[C@H](O)c1ccccc1)[C@H]1Cc4ccc(O)c5c4[C@@]3(CCN1CC1CC1)[C@H]2O5 |  |  |  |  |  | Ki [7]: 4.03 nM; Ki [6]: 3.21 nM
CO[C@]12C=C[C@@]3(C[C@]1(C)[C@H](O)c1cccc(C)c1)[C@H]1Cc4ccc(O)c5c4[C@@]3(CCN1CC1CC1)[C@H]2O5 | 22% | 6% | 43% |  |  | 
CO[C@]12CC[C@@]3(C[C@@H]1[C@](C)(O)c1ccccc1)[C@H]1Cc4ccc(O)c5c4[C@@]3(CCN1CC1CC1)[C@H]2O5 |  |  | 14% | no agonist activity | no agonist activity | Mu antagonist potency Ke [1]: 0.47 nM; Kb [1]: 0.47 nM; Kappa antagonist potency Ke ([2]; against standard agonist U69593): 0.27 nM
CO[C@]12CC[C@@]3(C[C@]1(C)[C@H](O)c1cccc(C)c1)[C@H]1Cc4ccc(O)c5c4[C@@]3(CCN1CC1CC1)[C@H]2O5 | 9% |  | 21% |  |  | 
CO[C@]12CC[C@@]3(C[C@]1(C)[C@H](O)c1ccc(F)cc1)[C@H]1Cc4ccc(O)c5c4[C@@]3(CCN1CC1CC1)[C@H]2O5 | 17% |  | 13% |  |  | 

— US9259422B2, “Orvinol and thevinol derivatives useful in the treatment of depression” (dated 2016)
